Legend:
[1] = molecular target: T1, peg4‐KLVFF peptide conjugate covalently bound to graphene oxide (GO@peg4‐KLVFF); assay: electrical (resistive) biosensor, I–V curves; peg4‐KLVFF held on graphene oxide between Pt/Ti electrodes; 1 µL of freshly prepared analyte peptide at 9 µM in water/HFIP 4:1, pH 5.5, left 5 min, washed in deionized water, read on dried samples; ΔR/R0 at 2 V
T1 sequence: KLVFF

[2] = molecular target: T1, peg4‐KLVFF peptide conjugate covalently bound to graphene oxide (GO@peg4‐KLVFF); assay: electrical (resistive) biosensor, I–V curves; as a1, but 4‐months‐aged Aβ42 centrifuged (10 000 rpm, 3 min, 25 °C) through a 5 kDa cut‐off septum, solution enriched with monomers; triplicate devices, mean ΔR/R0
[3] = molecular target: T1, peg4‐KLVFF peptide conjugate covalently bound to graphene oxide (GO@peg4‐KLVFF); assay: electrical (resistive) biosensor, I–V curves; as a1, but Aβ42 solution aged 40 days at 4 °C to induce aggregation, initial concentration 9 µM

Aβ42 native peptide (from UniProt P05067 672-713) (peptide; peg4 spacer (15‐amino‐7,7,10,13‐tetraoxapentadecanoic acid) at the N‐terminus; covalently conjugated with graphene oxide by EDC/NHS (carboxyl group of GO, amino group of the peptide); other documents disagree on this pair)
ΔR/R0 [1]: 0.5 | ΔR/R0 [2]: 0.6 | ΔR/R0 [3]: 0.4
